According to PubChem BioAssay AID720582 (The Scripps Research Institute Molecular Screening Center, 2013):
This is a selection; strong and weak results do not stand in their true shares. Calls of active or inactive are those of the source.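 The calls were made as follows: active = inhibition above a per-campaign cutoff equal to the mean of compounds falling between control-based bounds plus 3 SD (cut at about 20% in these data); inactive = the rest.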

Protein sequences, listed by entry. Tags and fused reporters are not part of them. Residues count along the entry.
UniProt O14672, 214-748 limits assumed: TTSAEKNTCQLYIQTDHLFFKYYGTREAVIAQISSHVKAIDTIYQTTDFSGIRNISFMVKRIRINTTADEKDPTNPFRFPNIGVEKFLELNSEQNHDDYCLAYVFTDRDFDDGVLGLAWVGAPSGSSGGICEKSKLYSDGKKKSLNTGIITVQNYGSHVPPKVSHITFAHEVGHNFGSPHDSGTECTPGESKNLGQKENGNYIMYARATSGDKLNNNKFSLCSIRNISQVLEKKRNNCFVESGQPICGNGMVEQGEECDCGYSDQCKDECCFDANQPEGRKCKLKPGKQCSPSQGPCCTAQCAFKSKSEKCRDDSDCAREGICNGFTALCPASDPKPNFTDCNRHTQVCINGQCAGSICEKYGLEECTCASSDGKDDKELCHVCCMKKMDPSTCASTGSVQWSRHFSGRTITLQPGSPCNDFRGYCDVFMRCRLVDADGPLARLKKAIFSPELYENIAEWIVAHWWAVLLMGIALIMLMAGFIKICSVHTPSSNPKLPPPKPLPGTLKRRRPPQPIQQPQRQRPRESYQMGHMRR

What follows are compounds tested against Disintegrin and metalloproteinase domain-containing protein 10 (Homo sapiens) (UniProt O14672) (assay: blockers of ADAM10 peptide cleavage – biochemical, QFRET, HTS, primary screen (AID 720582;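 also: 0% = DMSO wells while the 100% control is not disclosed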)). Conditions: recombinant ADAM10, EDANS/DABCYL FRET peptide cleavage, 3 h; at 7 µM; active compounds read high.

Compound | inhibition
O=[N+]([O-])c1cc([N+](=O)[O-])c(-n2nnc3ccccc32)c([N+](=O)[O-])c1 | inactive: -4.95%
CN(Cc1cccnc1)C(=O)COc1ccc(Cl)c(Cl)c1.O=[N+]([O-])c1cc([N+](=O)[O-])c(O)c([N+](=O)[O-])c1 | inactive: -5.01%
O=[N+]([O-])c1cc([N+](=O)[O-])c(-c2cnn(-c3ccccc3)c2)c([N+](=O)[O-])c1 | inactive: 2.73%
Cc1nc2ccc3ccccc3c2s1.O=[N+]([O-])c1cc([N+](=O)[O-])c(O)c([N+](=O)[O-])c1 | inactive: 8.33%
O=[N+]([O-])c1cc([N+](=O)[O-])c(Nc2nnnn2CCO)c([N+](=O)[O-])c1 | inactive: -1.64%
CCOC(=O)C(CC)C1=NC(C)(C)Cc2ccccc21.O=[N+]([O-])c1cc([N+](=O)[O-])c(O)c([N+](=O)[O-])c1 (stereo unspecified) | inactive: 2.9%
CN1CCCCC1COC(=O)C1(O)c2ccccc2CCc2ccccc21 (stereo unspecified) | inactive: -1.55%
COc1ccccc1OP(C)(=O)Nc1c(C)cccc1C (stereo unspecified) | inactive: -1.32%
CP(=O)(Nc1ccc(SC(F)(F)F)cc1)Oc1ccccc1 (stereo unspecified) | inactive: 1.88%
CCCOc1ccc(NP(C)(=O)Oc2ccc(Cl)cc2)cc1 (stereo unspecified) | inactive: 3.66%
COc1ccc(-c2ccccn2)cc1.O=[N+]([O-])c1cc([N+](=O)[O-])c(O)c([N+](=O)[O-])c1 | inactive: 1.21%
O=C(O)c1cccc(Nc2c([N+](=O)[O-])cc([N+](=O)[O-])cc2[N+](=O)[O-])c1 | inactive: 13.1%
CC1=NCCc2c1[nH]c1ccccc21.O=[N+]([O-])c1cc([N+](=O)[O-])c(O)c([N+](=O)[O-])c1 | inactive: -38.6%
COc1ccccc1OP(C)(=O)Nc1cccc(Br)c1 (stereo unspecified) | inactive: 7.07%
Cc1cc(C)cc(OP(C)(=O)Nc2ccc(C)cc2C)c1 (stereo unspecified) | inactive: 5.91%
CCOC(=O)c1ccc(NP(C)(=O)Oc2cc(C)cc(C)c2)cc1 (stereo unspecified) | inactive: 1.72%
CP(=O)(Nc1cccc(Br)c1)Oc1ccccc1 (stereo unspecified) | inactive: 1.93%
Cc1cc(C)cc(OP(C)(=O)Nc2ccccn2)c1 (stereo unspecified) | inactive: -4.42%
Cc1ccc(C)c(NP(C)(=O)Oc2ccccc2)c1 (stereo unspecified) | inactive: 3.69%
CCN(CC)CCCOC(=O)C(O)(c1ccccc1)c1ccccc1 | inactive: -6.75%
COc1ccccc1-c1ccccn1.O=[N+]([O-])c1cc([N+](=O)[O-])c(O)c([N+](=O)[O-])c1 | inactive: -7.9%
